Experimental data from patent US6613795B2, “Enantiomerically pure basic arylcycloalkylhydroxycarboxylic esters, processes for their preparation and their use in medicaments” (priority 1996, dated 2003).

Chains of the proteins cited; added tags and fusions are not shown. Lines headed by an entry give the natural chain unless they say otherwise; changes in a name come on top.
UniProt P11229: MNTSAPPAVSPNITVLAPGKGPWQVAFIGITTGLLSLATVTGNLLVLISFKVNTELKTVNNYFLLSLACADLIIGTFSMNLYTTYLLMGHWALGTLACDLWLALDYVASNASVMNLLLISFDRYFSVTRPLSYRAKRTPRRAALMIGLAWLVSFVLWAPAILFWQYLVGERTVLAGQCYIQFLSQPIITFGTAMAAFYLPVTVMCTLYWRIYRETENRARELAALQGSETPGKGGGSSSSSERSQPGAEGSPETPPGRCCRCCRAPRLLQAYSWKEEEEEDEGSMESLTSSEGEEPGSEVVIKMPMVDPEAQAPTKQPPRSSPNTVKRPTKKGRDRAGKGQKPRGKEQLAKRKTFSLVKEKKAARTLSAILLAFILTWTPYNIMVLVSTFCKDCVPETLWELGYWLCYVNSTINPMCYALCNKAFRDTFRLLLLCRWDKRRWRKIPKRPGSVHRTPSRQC

Assays:
M1 = settings: rabbit vas deferens
human M1 receptors = molecular target: T1, human M1 receptors (Homo sapiens, UniProt P11229); test: [3H]-NMS binding studies, M1 receptors from CHO-K1 cells
T1 construct: expressed in transfected cells; host or cells: CHO-K1

Row | SMILES | PA2 RVD (M1) (M1) | Ki (human M1 receptors) [nM]
1 | C[N+]1(C)CC[C@@H](OC(=O)[C@@](O)(c2ccccc2)C2CCCC2)C1 [Id, (3R,2′S)-3-[(cyclopentylhydroxyphenylacetyl)oxy]-1,1-dimethylpyrrolidinium iodide] | 9.53 | 0.437
2 | C[N+]1(C)CC[C@H](OC(=O)[C@](O)(c2ccccc2)C2CCCC2)C1 [Ib, (3S,2′R)-3-[(cyclopentylhydroxyphenylacetyl)oxy]-1,1-dimethylpyrrolidinium iodide] | 10.40 | 0.0331
3 | C[N+]1(C)CC[C@H](OC(=O)[C@@](O)(c2ccccc2)C2CCCC2)C1 [Ia, (3S,2′S)-3-[(cyclopentylhydroxyphenylacetyl)oxy]-1,1-dimethylpyrrolidinium iodide] | 8.22 | 4.37
4 | C[N+]1(C)CC[C@@H](OC(=O)[C@](O)(c2ccccc2)C2CCCC2)C1 [Ic, (3R,2′R)-3-[(cyclopentylhydroxyphenylacetyl)oxy]-1,1-dimethylpyrrolidinium iodide] | – | 0.0661
